Results published in PubChem BioAssay AID624263 (National Center for Advancing Translational Sciences (NCATS), 2012).
The list shows a part of the results, in another mix than the full data. The source made the active and inactive calls. Calls follow the shape of the dose curve; as a rule, active = well fitted activation curve with a large enough effect; inconclusive = small, poorly fitted or top-dose-only effect; inactive = flat fitted curve, though single readings scatter; cell line not stated here.

Assay: A Quantitative High throughput Screen to Identify Chemical Modulators of PINK1 Expression; also: % of control where 0% means no effect; nearly all actives have a fitted effect of over 65% in size
Details: PINK1 immunofluorescence, high-content cytometry, 24 h; at 76.6 µM (top of the series) unless noted

Structure (SMILES)	activation (PINK1 increase)
CC(C)(C)OC(=O)N1CCC(N(C(=O)c2ccccc2)c2ccc(F)cc2)CC1	inactive: 2.14%
COc1ccc(C(=O)NCC2(N3CCCCC3)CCCCC2)c(OC)c1OC	inactive: -1.88%
CCC(c1nnnn1C1CCCC1)N1CCC(n2c(=O)[nH]c3ccccc32)CC1 (stereo not given)	inactive: 1.01%
COc1ccc(C(=O)NCC2(N3CCCCC3)CCCCC2)cc1	inactive: 0.519%
O=C(NCC1(N2CCCCC2)CCCCC1)c1cccs1	inactive: -0.152%
CCCCn1nnnc1C(CC)N1CCC(n2c(=O)[nH]c3ccccc32)CC1 (stereo not given)	inactive: 0.45%
CCCCn1nnnc1C(c1cccs1)N1CCC(n2c(=O)[nH]c3ccccc32)CC1 (stereo not given)	inactive: -1.34%
O=C(NCC1(N2CCCCC2)CCCCC1)c1ccc(=O)[nH]c1	inactive: 0.172%
Cc1cccc(NC2(C#N)CCN(Cc3ccccc3)CC2)c1	inactive: -0.0585%
CSc1ccccc1C(=O)NCC1(N2CCCCC2)CCCCC1	inactive: -0.165%
Cc1cc(C)cc(N(C(=O)c2ccccc2)C2CCN(C(=O)OC(C)(C)C)CC2)c1	inactive: 17.3%
O=C(NCC1(N2CCCCC2)CCCCC1)c1ccc(Cl)nc1	inactive: 1.74%
O=c1[nH]c2ccccc2n1C1CCN(C(c2ccccc2OC(F)(F)F)c2nnnn2C2CCCCC2)CC1 (stereo not given)	inactive: 8.59%
O=C(NCC1(N2CCOCC2)CCCCC1)c1cc2ccccc2o1	inactive: -2%
COc1ccc(Cl)cc1C(=O)NCC1(N2CCOCC2)CCCCC1	inactive: 0.93%
O=C1C(O)=C([N+](=O)[O-])C(=O)C(O)=C1[N+](=O)[O-]	inactive: 1.4%
O=C(NCC1(N2CCCCC2)CCCCC1)c1ccc(Cl)s1	inactive: 0.192%
N#CC1(Nc2ccccc2)CCN(Cc2ccccc2)CC1	inactive: -1.62%
O=C(OC1CN2CCC1CC2)C1c2ccccc2Oc2ccccc21 (stereo not given)	inactive: 0.0187%
O=c1[nH]c2ccccc2n1C1CCN(C(c2cc3ccccc3o2)c2nnnn2C2CCCCC2)CC1 (stereo not given)	inactive: 5.81%
CCCCn1nnnc1C(c1ccc(OC)cc1)N1CCC(n2c(=O)[nH]c3ccccc32)CC1 (stereo not given)	inactive: -0.217%
CCOC(=O)N1CCC(Nc2ccc(OC)cc2)CC1	inactive: -0.394%
O=C1CCN(Cc2ccccc2)CC1	inactive: 0.893%

Structure (SMILES)	activation (PINK1 increase)
O=C(NCC1(N2CCOCC2)CCCCC1)c1ccc(Cl)cc1	inactive: 1.04%
CC(C)(C)n1nnnc1C(c1ccccc1)N1CCC(n2c(=O)[nH]c3ccccc32)CC1 (stereo not given)	inactive: -0.303%
CCOc1ccc(C)cc1CN(CCCl)CCCl	inactive: 0.784%
COc1ccccc1C(=O)NCC1(N2CCOCC2)CCCCC1	inactive: -0.331%
COc1ccc(NC2CCN(CCc3ccccc3)CC2)c(OC)c1	inactive: 3.17% [at 38.3 µM]
CCOC(=O)N1CCC(Nc2ccc(F)cc2)CC1	inactive: 0.179%
CCCCn1nnnc1C(c1cc2ccccc2o1)N1CCC(n2c(=O)[nH]c3ccccc32)CC1 (stereo not given)	inactive: 1.91%
O=P1(N(CCCl)CCCl)SCCCS1	inactive: 1.6%
CCCCOc1ccc(C(=O)NCC2(N3CCOCC3)CCCCC2)cc1	inactive: 1.55%
O=C(NCC1(N2CCCCC2)CCCCC1)c1ccc(F)cc1	inactive: 0.758%
O=c1[nH]c2ccccc2n1C1CCN(C(c2ccccc2)c2nnnn2C2CCCCC2)CC1 (stereo not given)	inactive: 0.391%
CCOC(=O)N1CCC(Nc2cccc(C)c2)CC1	inactive: 2.99%
COc1cc(C(=O)NCC2(N(C)C)CCCCC2)ccc1OC(F)F	inactive: -0.364%
O=c1[nH]c2ccccc2n1C1CCN(C(c2cccc3ccccc23)c2nnnn2C2CCCC2)CC1 (stereo not given)	inactive: 0.365%
O=C(NCC1(N2CCCCC2)CCCCC1)c1ccc(OC(F)F)cc1	inactive: 1.65%
CC(C)(C)n1nnnc1C(c1ccccc1OC(F)(F)F)N1CCC(n2c(=O)[nH]c3ccccc32)CC1 (stereo not given)	inactive: -0.63%
O=c1[nH]c2ccccc2n1C1CCN(C(c2ccccc2OC(F)(F)F)c2nnnn2C2CCCC2)CC1 (stereo not given)	inactive: 7.99%
N#CC1(Nc2ccccc2)CCN(CCc2ccccc2)CC1	inactive: -1.04%
CCN1CCC(Nc2ccc(Cl)cc2)CC1	inactive: -1.62%
CCOc1ccc(C(=O)NCC2(N3CCOCC3)CCCCC2)cc1	inactive: -1.11%
O=C(NCC1(N2CCCCC2)CCCCC1)c1cccc([N+](=O)[O-])c1	inactive: -1.02%
CSc1ccc(C(=O)NCC2(N3CCOCC3)CCCCC2)cc1	inactive: -0.324%
